# Data: PubChem BioAssay AID651560 (Sanford-Burnham Center for Chemical Genomics, 2012)
# Protein sequences, listed by entry. Tags and fused reporters are not part of them.
# UniProt P24666, whole entry: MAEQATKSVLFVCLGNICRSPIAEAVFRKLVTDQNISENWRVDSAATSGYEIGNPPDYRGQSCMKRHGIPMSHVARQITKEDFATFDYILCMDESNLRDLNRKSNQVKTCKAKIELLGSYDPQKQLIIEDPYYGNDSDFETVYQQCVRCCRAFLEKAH
# Only a part is listed here, and it is no random draw. Activity calls are given as the source filed them.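 Rule for the calls: active = compounds that cut the enzyme signal by at least half of the control window in the single-dose screen; inactive = the rest.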
# Target: Low molecular weight phosphotyrosine protein phosphatase (Homo sapiens) (UniProt P24666)
# Assay: LMPTP phosphatase inhibitors, primary screen, biochemical, fluorescence intensity, uHTS (AID 651560);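 note: plate controls were DMSO wells with enzyme plus substrate for no effect and substrate without enzyme for full effect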
# Settings: recombinant LMPTP-A, OMFP fluorogenic substrate, at 20 µM, hits give high values
# Method in brief: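 Test system: LMPTP-A phosphatase enzyme. Amount: LMPTP-A at 0.625 nM final in the reaction. Reagent: OMFP substrate, 400 µM final. Times: 50 min at room temperature. Signal: endpoint fluorescence intensity from OMFP dephosphorylation. Read-out basis: % inhibition. Benchmarks: no-enzyme and uninhibited controls.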
row,SMILES,inhibition
1,O=c1[nH]c2ccccc2n1C1CCN(C(c2ccccc2)c2nnnn2C2CCCCC2)CC1 (stereo not given),inactive: 4.22%
2,O=c1[nH]c2ccccc2n1C1CCN(C(c2cccc3ccccc23)c2nnnn2C2CCCC2)CC1 (stereo not given),inactive: 4.07%
3,COc1cc(C(=O)NCC2(N(C)C)CCCCC2)ccc1OC(F)F,inactive: -0.511%
4,CCOC(=O)N1CCC(Nc2cccc(C)c2)CC1,inactive: -2.09%
5,CCOc1ccc(C)cc1CN(CCCl)CCCl,inactive: -5.36%
6,O=C1CCN(Cc2ccccc2)CC1,inactive: 4.26%
7,CC(C)(C)n1nnnc1C(c1ccccc1)N1CCC(n2c(=O)[nH]c3ccccc32)CC1 (stereo not given),inactive: 4.64%
8,CCOC(=O)N1CCC(Nc2ccc(F)cc2)CC1,inactive: -3.85%
9,COc1ccc(NC2CCN(CCc3ccccc3)CC2)c(OC)c1,inactive: -4.43%
10,O=C(NCC1(N2CCCCC2)CCCCC1)c1ccc(F)cc1,inactive: -0.678%
11,CCCCOc1ccc(C(=O)NCC2(N3CCOCC3)CCCCC2)cc1,inactive: -0.882%
12,O=P1(N(CCCl)CCCl)SCCCS1,inactive: -2.05%
13,CCCCn1nnnc1C(c1cc2ccccc2o1)N1CCC(n2c(=O)[nH]c3ccccc32)CC1 (stereo not given),inactive: 4.22%
14,O=C(NCC1(N2CCOCC2)CCCCC1)c1cc2ccccc2o1,inactive: -1.12%
15,Cc1cc(C)cc(N(C(=O)c2ccccc2)C2CCN(C(=O)OC(C)(C)C)CC2)c1,inactive: 1.27%
16,O=c1[nH]c2ccccc2n1C1CCN(C(c2ccccc2OC(F)(F)F)c2nnnn2C2CCCCC2)CC1 (stereo not given),inactive: 2.73%
17,O=C(NCC1(N2CCCCC2)CCCCC1)c1ccc(Cl)nc1,inactive: 0.754%
18,CCCCn1nnnc1C(c1ccc(OC)cc1)N1CCC(n2c(=O)[nH]c3ccccc32)CC1 (stereo not given),inactive: 4.18%
19,CCOC(=O)N1CCC(Nc2ccc(OC)cc2)CC1,inactive: 0.63%
20,COc1ccc(Cl)cc1C(=O)NCC1(N2CCOCC2)CCCCC1,inactive: -1.92%

row,SMILES,inhibition
1,O=c1[nH]c2ccccc2n1C1CCN(C(c2cc3ccccc3o2)c2nnnn2C2CCCCC2)CC1 (stereo not given),inactive: 4.28%
2,O=C(OC1CN2CCC1CC2)C1c2ccccc2Oc2ccccc21 (stereo not given),inactive: -1.23%
3,N#CC1(Nc2ccccc2)CCN(Cc2ccccc2)CC1,inactive: -1.16%
4,O=C(NCC1(N2CCCCC2)CCCCC1)c1ccc(Cl)s1,inactive: 0.667%
5,CCCCn1nnnc1C(c1cccs1)N1CCC(n2c(=O)[nH]c3ccccc32)CC1 (stereo not given),inactive: 2.8%
6,O=C(NCC1(N2CCCCC2)CCCCC1)c1cccs1,inactive: -6.65%
7,CCCCn1nnnc1C(CC)N1CCC(n2c(=O)[nH]c3ccccc32)CC1 (stereo not given),inactive: 2.06%
8,O=C(NCC1(N2CCCCC2)CCCCC1)c1ccc(=O)[nH]c1,inactive: -1.46%
9,CCC(c1nnnn1C1CCCC1)N1CCC(n2c(=O)[nH]c3ccccc32)CC1 (stereo not given),inactive: 2.05%
10,CC(C)(C)OC(=O)N1CCC(N(C(=O)c2ccccc2)c2ccc(F)cc2)CC1,inactive: -0.972%
11,COc1ccc(C(=O)NCC2(N3CCCCC3)CCCCC2)c(OC)c1OC,inactive: 0.585%
12,COc1ccc(C(=O)NCC2(N3CCCCC3)CCCCC2)cc1,inactive: 3.83%
13,Cc1cccc(NC2(C#N)CCN(Cc3ccccc3)CC2)c1,inactive: -0.337%
14,CSc1ccccc1C(=O)NCC1(N2CCCCC2)CCCCC1,inactive: 1.99%
15,O=C(NCC1(N2CCCCC2)CCCCC1)c1cncc(Br)c1,inactive: 2.19%
16,CN1CCC(Nc2cccc(F)c2)CC1,inactive: -2.29%
17,CCCOc1ccc(C(=O)NCC2(N(C)C)CCCCC2)cc1OC,inactive: 0.343%
18,Cc1ccc(C(=O)NCC2(N(C)C)CCCCC2)o1,inactive: -0.627%
19,COc1ccc(C(c2nnnn2C2CCCC2)N2CCC(n3c(=O)[nH]c4ccccc43)CC2)cc1 (stereo not given),inactive: 3.87%
20,CN(C)c1cccc(C(=O)NCC2(N3CCCCC3)CCCCC2)c1,inactive: 0.413%

row,SMILES,inhibition
1,COc1ccc(CN(CCCl)CCCl)cc1Cl,inactive: -5.71%
2,CC(C)c1ccc(NC2CCN(C(=O)OC(C)(C)C)CC2)cc1,inactive: 0.245%
3,CCCCn1nnnc1C(c1ccccc1OC(F)(F)F)N1CCC(n2c(=O)[nH]c3ccccc32)CC1 (stereo not given),inactive: 7.36%
4,CCCCn1nnnc1C(c1ccnc2ccccc12)N1CCC(n2c(=O)[nH]c3ccccc32)CC1 (stereo not given),inactive: 6.26%
5,CCC(c1nnnn1C(C)(C)C)N1CCC(n2c(=O)[nH]c3ccccc32)CC1 (stereo not given),inactive: 5%
6,O=C(NCC1(N2CCOCC2)CCCCC1)c1cc(F)c(F)cc1Cl,inactive: -1.51%
7,COc1cc(OC)c(C(=O)NCC2(N(C)C)CCCCC2)cc1OC,inactive: -2%
8,O=C(NCC1(N2CCCCC2)CCCCC1)c1cccc(C(F)(F)F)c1,inactive: 1.16%
9,CCCCn1nnnc1C(c1cccc2ccccc12)N1CCC(n2c(=O)[nH]c3ccccc32)CC1 (stereo not given),inactive: 5.26%
10,CC(C)c1ccc(C(=O)NCC2(N3CCOCC3)CCCCC2)cc1,inactive: -0.0176%
11,COc1ccc(NC2CCN(C(=O)OC(C)(C)C)CC2)cc1,inactive: 0.948%
12,CN1CCN(CCOC(=O)C(O)(c2ccccc2)c2ccccc2)CC1,inactive: -3.28%
13,O=C(NCC1(N2CCOCC2)CCCCC1)c1cc(=O)[nH]c2ccccc12,inactive: -0.919%
14,COc1cc(C(=O)NCC2(N3CCCCC3)CCCCC2)ccc1OC(F)F,inactive: 7.82%
15,O=C(NCC1(N2CCCCC2)CCCCC1)c1ccc(OC(F)F)cc1,inactive: 1.87%
16,CC(C)(C)n1nnnc1C(c1ccccc1OC(F)(F)F)N1CCC(n2c(=O)[nH]c3ccccc32)CC1 (stereo not given),inactive: 5.14%
17,CSc1ccc(C(=O)NCC2(N3CCOCC3)CCCCC2)cc1,inactive: 0.441%
18,O=C(NCC1(N2CCCCC2)CCCCC1)c1cccc([N+](=O)[O-])c1,inactive: 1.91%
19,N#CC1(Nc2ccccc2)CCN(CCc2ccccc2)CC1,inactive: 0.722%
20,O=c1[nH]c2ccccc2n1C1CCN(C(c2ccccc2OC(F)(F)F)c2nnnn2C2CCCC2)CC1 (stereo not given),inactive: 5.57%
